Our source for the saturated solution values is patent publication US20190038644A1, “PREPARATION FOR NASAL-NASOPHARYNGEAL TREATMENT” (priority 2017, published 2019).

For this series the following is noted: aqueous solution.

Consider D-mannose/mannitol, for which the saturated solution is recorded as 59 grams per 100 millilitres of s.
